Molecular target: human mGluR2 receptor (Homo sapiens, UniProt Q14416)
Assay: [35S]GTPγS binding assay (PAM assay, membranes from CHO cells transfected with the human mGluR2 receptor)
Conditions: in presence of glutamate at EC20; pEC50 = -log EC50 (mol/L)
Experimental: The [^35S]GTPγS binding assay is a functional membrane-based assay used to study G-protein coupled receptor (GPCR) function whereby incorporation of a non-hydrolysable form of GTP, [^35S]GTPγS (guanosine 5′-triphosphate, labelled with […] ^35S), is measured. The G-protein α subunit catalyzes the exchange of guanosine 5′-diphosphate (GDP) by guanosine triphosphate (GTP) and on activation of the GPCR by an agonist, [^35S]GTPγS, becomes incorporated and cannot be cleaved to continue the exchange cycle (Harper (1998) Current Protocols in Pharmacology 2.6.1-10, John Wiley & Sons, Inc.). […] Here we describe the use of the [^35S]GTPγS binding assay using membranes from cells transfected with the human mGluR2 receptor and adapted from Schaffhauser et al. ((2003) Molecular Pharmacology 4:798-810) for the detection of the positive allosteric modulation (PAM) properties of the compounds of this invention.
CHO-cells were cultured to pre-confluence and stimulated with 5 mM butyrate for 24 h, prior to washing in PBS, and then collected by scraping in homogenisation buffer (50 mM Tris-HCl buffer, pH 7.4, 4° C.). Cell lysates were homogenized briefly using an ultra-turrax homogenizer. The homogenate was centrifuged at 16,000 RPM (Sorvall RC-5C plus rotor SS-34) for 10 minutes and the supernatant discarded. The pellet was resuspended in 5 mM Tris-HCl, pH 7.4 and centrifuged again (18,000 RPM, 20 min, 4° C.). The final pellet was resuspended in 50 mM Tris-HCl, pH 7.4 and stored at −80° C. in appropriate aliquots before use. Protein concentration was determined by the Bradford method (Bio-Rad, USA) with bovine serum albumin as standard.
Measurement of mGluR2 positive allosteric modulatory activity of test compounds was performed as follows. Test compounds and glutamate were diluted in assay buffer containing 10 mM HEPES acid, 10 mM HEPES salt, pH 7.4, 100 mM NaCl, 3 mM MgCl2 and 10 μM GDP. Human mGlu2 receptor-containing membranes were thawed on ice and diluted in assay buffer supplemented with 14 μg/ml saponin. Membranes were pre-incubated with compound alone or together with a predefined (˜EC20) concentration of glutamate (PAM assay) for 30 min at 30° C. After addition of [^35S]GTPγS (f.c. 0.1 nM) microplates were shaken briefly and further incubated to allow [^35S]GTPγS incorporation on activation (30 minutes, 30° C.). Final assay mixtures contained 7 μg of membrane protein in 10 mM HEPES acid, 10 mM HEPES salt, pH 7.4, 100 mM NaCl, 3 mM MgCl2,10 μM GDP and 10 μg/ml saponin. Total reaction volume was 200 μl. Reactions were terminated by rapid filtration through Unifilter-96 GF/B filter plates (Packard, Meriden, Conn.) using a 96-well Packard filtermate harvester. Filters were washed 6 times with ice-cold 10 mM NaH2PO4/10 mM Na2HPO4, pH 7.4. Filters were then air-dried, and 40 μl of liquid scintillation cocktail (Microscint-O) was added to each well. Membrane-bound radioactivity was counted in a Microplate Scintillation and Luminescence Counter from Packard.
The concentration-response curves of representative compounds of the present invention—obtained in the presence of EC20 of mGluR2 agonist glutamate to determine positive allosteric modulation (PAM)—were generated using the Lexis software interface (developed at J&J). Data were calculated as % of the control glutamate response, defined as the maximal response that is generated upon addition of glutamate alone. Sigmoid concentration-response curves plotting these percentages versus the log concentration of the test compound were analyzed using non-linear regression analysis. The concentration producing half-maximal effect is then calculated as EC50. The pEC50 values below are calculated as the −log EC50 (wherein EC50 is expressed in mol/L). […]

Amino acid sequences for entries named in this document (tags omitted). Residues count along the entry.
UniProt Q14416, 19-872 limits assumed: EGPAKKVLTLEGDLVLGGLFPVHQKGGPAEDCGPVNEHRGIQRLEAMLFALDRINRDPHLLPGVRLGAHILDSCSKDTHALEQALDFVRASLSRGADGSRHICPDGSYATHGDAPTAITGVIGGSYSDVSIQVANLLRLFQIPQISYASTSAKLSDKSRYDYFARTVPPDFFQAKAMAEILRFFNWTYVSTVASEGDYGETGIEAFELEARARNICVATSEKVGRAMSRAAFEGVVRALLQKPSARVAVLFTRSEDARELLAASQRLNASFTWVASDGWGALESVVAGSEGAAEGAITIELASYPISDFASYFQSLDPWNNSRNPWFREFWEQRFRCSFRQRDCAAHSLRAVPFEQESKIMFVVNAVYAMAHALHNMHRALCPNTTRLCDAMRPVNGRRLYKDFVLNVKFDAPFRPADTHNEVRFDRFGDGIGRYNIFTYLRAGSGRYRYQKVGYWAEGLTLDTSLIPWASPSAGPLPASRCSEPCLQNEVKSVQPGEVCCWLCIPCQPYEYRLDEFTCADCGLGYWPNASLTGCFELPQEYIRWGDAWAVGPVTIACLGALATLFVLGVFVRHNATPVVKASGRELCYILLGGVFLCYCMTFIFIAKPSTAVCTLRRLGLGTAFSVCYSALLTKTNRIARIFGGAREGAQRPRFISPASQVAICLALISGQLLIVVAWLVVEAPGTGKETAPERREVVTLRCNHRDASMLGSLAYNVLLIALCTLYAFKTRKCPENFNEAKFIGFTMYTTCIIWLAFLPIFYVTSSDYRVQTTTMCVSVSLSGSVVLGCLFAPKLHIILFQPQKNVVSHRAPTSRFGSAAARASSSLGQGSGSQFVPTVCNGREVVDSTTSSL

| SMILES | GTPγS-hR2 PAM pEC50 |
| --- | --- |
| CCOCc1nnc2c(Cl)c(-c3ccc4c(c3)OCCN4c3ncccn3)ccn12 | 6.13 |
| FC(F)(F)c1c(-c2ccc3c(c2)OCCN3c2cccnc2)ccn2c(CC3CC3)nnc12 | 7.85 |
| CCOCc1nnc2c(Cl)c(-c3ccc4c(c3)OCCN4c3ccccn3)ccn12 | 6.48 |
| Fc1ccc(-n2ccc3cc(-c4ccn5c(CC6CC6)nnc5c4Cl)cnc32)cc1 | 6.82 |
| FC(F)(F)c1c(-c2ccc3c(c2)OCCN3c2ccncc2)ccn2c(CC3CC3)nnc12 | 7.50 |

Next, values leading:

| GTPγS-hR2 PAM pEC50 | SMILES |
| --- | --- |
| 6.86 | Clc1c(-c2ccc3c(c2)OCCN3c2ccccn2)ccn2c(CC3CC3)nnc12 |
| 7.18 | Clc1c(-c2ccc3c(c2)OCCN3c2cccnc2)ccn2c(CC3CC3)nnc12 |
| 6.45 | Clc1c(-c2ccc3c(cnn3Cc3cccnc3)c2)ccn2c(CC3CC3)nnc12 |
| 7.50 | Cc1cc(N2CCOc3cc(-c4ccn5c(CC6CC6)nnc5c4C(F)(F)F)ccc32)ccn1 |
| 7.92 | Cc1ccc(N2CCOc3cc(-c4ccn5c(CC6CC6)nnc5c4Cl)ccc32)cn1 |

Reference: US8946205B2, “1,2,4-triazolo[4,3-a]pyridine derivatives and their use as positive allosteric modulators of mGluR2 receptors” (Janssen Pharmaceuticals, Inc., priority 2009, dated 2015)
